This passage reports IC50 results from BindingDB's records for doi:10.1016/j.bioorg.2012.08.003 (North-West University, 2012).

Chains of the proteins cited; added tags and fusions are not shown.
UniProt P27338, whole entry: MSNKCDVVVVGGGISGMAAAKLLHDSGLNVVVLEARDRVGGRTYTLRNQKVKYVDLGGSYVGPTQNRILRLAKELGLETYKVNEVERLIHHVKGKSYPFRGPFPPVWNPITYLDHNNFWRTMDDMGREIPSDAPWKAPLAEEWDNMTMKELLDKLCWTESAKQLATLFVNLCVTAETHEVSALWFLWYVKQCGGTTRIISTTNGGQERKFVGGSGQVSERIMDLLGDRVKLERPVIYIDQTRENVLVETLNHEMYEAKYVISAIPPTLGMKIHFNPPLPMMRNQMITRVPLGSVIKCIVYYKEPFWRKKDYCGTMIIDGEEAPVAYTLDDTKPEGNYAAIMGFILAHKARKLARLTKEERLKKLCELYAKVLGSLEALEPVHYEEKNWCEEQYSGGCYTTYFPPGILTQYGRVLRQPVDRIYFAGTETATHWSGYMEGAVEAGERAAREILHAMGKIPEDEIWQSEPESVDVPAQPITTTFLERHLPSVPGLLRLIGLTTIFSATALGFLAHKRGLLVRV

In the test the target is Amine oxidase [flavin-containing] B (Homo sapiens, UniProt P27338). The experiment in a line: Inhibition Assay. To be noted: pH 7.4; 37 °C. An excerpt: Inhibition studies using recombinant human MAO-A and MAO-B that were obtained from commercial sources (Sigma-Aldrich).

The IC50 is the point on the concentration scale where inhibition reaches its midpoint. Low values mean greater potency, high ones weaker potency. The molecule `O=c1ccoc2cc(OCc3cccc(Cl)c3)ccc12` [C7-substituted chromone derivative, 3d] registered an IC50 of 17 nM.

In turn, `O=c1ccoc2cc(OCc3ccc(F)cc3)ccc12` [C7-substituted chromone derivative, 3i] yielded an IC50 of 25 nM.

Take `O=c1ccoc2cc(OCc3ccc(C(F)(F)F)cc3)ccc12` [C7-substituted chromone derivative, 3n]: the half-maximal inhibitory concentration (IC50) is 8 nM.
